Experimental data taken from US11192889B2, “Tetrahydronaphthyridinepentanamide integrin antagonists” (The Rockefeller University, priority 2016, dated 2021).
Where “and” joins values, the source holds several entries; their conditions need not be identical. Equal values may be shown once.

Amino acid sequences for entries named in this document (tags omitted).
UniProt P05106, whole entry: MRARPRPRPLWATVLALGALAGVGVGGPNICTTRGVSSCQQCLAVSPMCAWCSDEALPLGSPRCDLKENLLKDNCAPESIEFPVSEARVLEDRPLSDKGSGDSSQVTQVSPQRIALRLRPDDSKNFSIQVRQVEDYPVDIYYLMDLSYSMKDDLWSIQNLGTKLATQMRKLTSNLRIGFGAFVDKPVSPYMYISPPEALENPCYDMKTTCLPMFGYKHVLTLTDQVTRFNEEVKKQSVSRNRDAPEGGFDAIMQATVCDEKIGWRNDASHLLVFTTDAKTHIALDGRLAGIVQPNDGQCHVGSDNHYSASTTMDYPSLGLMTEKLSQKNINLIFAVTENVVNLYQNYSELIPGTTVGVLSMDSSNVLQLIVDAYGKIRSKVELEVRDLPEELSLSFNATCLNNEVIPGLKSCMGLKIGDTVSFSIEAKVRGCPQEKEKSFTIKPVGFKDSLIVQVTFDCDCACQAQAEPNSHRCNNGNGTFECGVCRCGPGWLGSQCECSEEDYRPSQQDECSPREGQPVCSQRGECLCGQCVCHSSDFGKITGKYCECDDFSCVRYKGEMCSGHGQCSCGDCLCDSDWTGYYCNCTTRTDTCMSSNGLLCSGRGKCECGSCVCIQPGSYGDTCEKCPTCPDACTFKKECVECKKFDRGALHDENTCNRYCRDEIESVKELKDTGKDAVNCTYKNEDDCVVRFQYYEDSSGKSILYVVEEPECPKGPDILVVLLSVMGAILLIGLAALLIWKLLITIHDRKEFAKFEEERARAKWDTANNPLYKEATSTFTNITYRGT
UniProt P06756, whole entry: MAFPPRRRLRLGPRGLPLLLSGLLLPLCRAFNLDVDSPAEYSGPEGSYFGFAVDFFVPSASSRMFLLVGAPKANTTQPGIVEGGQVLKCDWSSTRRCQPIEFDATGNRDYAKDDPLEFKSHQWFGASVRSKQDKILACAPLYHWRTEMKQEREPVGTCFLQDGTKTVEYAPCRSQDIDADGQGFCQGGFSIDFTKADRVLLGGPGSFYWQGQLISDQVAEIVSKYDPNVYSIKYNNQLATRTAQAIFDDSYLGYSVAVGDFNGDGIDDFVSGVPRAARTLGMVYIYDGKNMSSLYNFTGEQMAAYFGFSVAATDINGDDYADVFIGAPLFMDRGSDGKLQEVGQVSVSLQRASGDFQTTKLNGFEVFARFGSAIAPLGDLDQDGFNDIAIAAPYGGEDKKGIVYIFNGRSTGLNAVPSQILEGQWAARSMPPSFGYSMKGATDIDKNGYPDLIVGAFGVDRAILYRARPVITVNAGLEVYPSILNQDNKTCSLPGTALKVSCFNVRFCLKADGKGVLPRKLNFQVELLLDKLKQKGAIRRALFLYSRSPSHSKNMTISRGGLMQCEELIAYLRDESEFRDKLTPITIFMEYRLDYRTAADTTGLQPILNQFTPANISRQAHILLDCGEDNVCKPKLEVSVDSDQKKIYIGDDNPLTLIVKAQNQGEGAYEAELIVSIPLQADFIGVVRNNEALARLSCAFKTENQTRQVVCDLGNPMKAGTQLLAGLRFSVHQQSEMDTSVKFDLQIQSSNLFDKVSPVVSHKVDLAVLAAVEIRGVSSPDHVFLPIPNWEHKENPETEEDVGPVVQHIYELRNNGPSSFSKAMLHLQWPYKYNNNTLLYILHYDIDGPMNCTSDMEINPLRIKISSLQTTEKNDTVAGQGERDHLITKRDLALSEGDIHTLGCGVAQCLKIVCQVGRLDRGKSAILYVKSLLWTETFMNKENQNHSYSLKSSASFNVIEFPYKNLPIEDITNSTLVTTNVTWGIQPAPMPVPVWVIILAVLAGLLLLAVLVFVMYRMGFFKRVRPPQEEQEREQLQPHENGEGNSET

Legend:
HEK-293-αVβ3 cells [1] = target: T1, HEK-293-αVβ3 cells (Homo sapiens, UniProt P05106+P06756); experiment: αVβ3 Cell Adhesion to Fibrinogen Assay; details: dose reducing by 50% the adhesion of HEK-293-αVβ3 cells to fibrinogen; separate determinations listed
Text: HEK-293 Cells Expressing αVβ3. HEK-293 cells were transfected using lipofectamine 2000 (Invitrogen #11668030) with the cDNA for αV using the pEF1/V5-His A vector and the cDNA for β3 using the vector pcDNA3.1. Cells expressing αVβ3 were identified by their reaction with murine monoclonal antibodies (mAbs) LM609 and 7E3, and stable cell lines were established by repetitive sorting using LM609. […] HEK-293-αVβ3 cells for assays are counted in an automated cell counter (ADVIA 120) and adjusted to values appropriate for each assay.
αVβ3 Cell Adhesion to Fibrinogen Assay. Polystyrene 96-well microtiter plates (Costar, 3590) are precoated with 3.5 μg/mL of purified fibrinogen (Enzyme Research Laboratories) in 0.15 M NaCl, 0.01 M Tris/HCL, pH 7.4 for 1 hour at 37° C. […] After 30-32 minutes the wells are washed with HBMT containing Ca2+ and Mg2+ three times and then the adherent cells are lysed and the acid phosphatase activity that is released is measured by: 1. adding phosphatase substrate (Sigma EC 224-246-5) at 2 mg/mL in 0.1 M Na citrate, pH 5.6, 0.1% triton X-100 for 1 hour at room temperature; 2. stopping the reaction by adding 50 μL of 2 M NaOH; and 3. analyzing the samples in a spectrophotometer at 405 nm. […] IC50's were not determined for all compounds in the table; for some of these test compounds the inhibition at specific doses are reported. […]

HEK-293-αVβ3 cells [2] = target: T1, HEK-293-αVβ3 cells; experiment: AP5 Binding Assay; type: cell-based

- IC50 (HEK-293-αVβ3 cells [1]): 23.3 nM and 21.6 nM
- AP5 expression induced at the highest concentration (HEK-293-αVβ3 cells [2]; @10 μM, relative to AP5 expression induced by cilengitide): 7%
- EC50 (HEK-293-αVβ3 cells [2]; concentration inducing 50% of the AP5 expression induced by 1 μM cilengitide): could not be calculated
SMILES: O=C(CCCCc1ccc2c(n1)NCCC2)NCC[C@H](NC(=O)c1nc2ccccc2s1)C(=O)O
